# Earlier results, collected in patent US20180263919A1, “THERAPEUTIC ELECTROSPUN FIBER COMPOSITIONS” (The Johns Hopkins University, priority 2006, published 2018).
# Conditions: in vivo, iv; cited from earlier work
substance,measurement,value
VEGF,biologic half-life,50 minutes
